These are literature values, as cited in article PMC8729037 (European journal of pharmacology, 2019).

For this series, the system named is EGFR. Conditions: NSCLC cell lines; ref Moody et al., 2014; cited from earlier work.

As to `COc1cc2ncnc(Nc3ccc(F)c(Cl)c3)c2cc1OCCCN1CCOCC1` [Gefitinib], the “Effect on neurotensin-induced EGFR tyrosine phosphorylation (in words)” value is “reduced”.
